The text below walks through data of patent US11819489B2 (priority 2017, dated 2023).

Several values for one entry are separate records, joined by “and”; a condition that tells them apart may be missing. Equal entries are not always repeated.

The test system of one experiment is K562 cells. As to the kind of experiment: MTT cytotoxicity assay on K562 cells. The conditions noted are these: for IC50: K562 cells, 24-h treatment.
The subject of experiment [1] is Chinese hamster (CH) solid tumour cells. As to the kind of experiment: MTT cytotoxicity assay on Chinese hamster solid tumour cells. The following applies: 24-h treatment.
Experiment [2] concerns human peripheral blood mononuclear cells (hPBMC). Briefly: MTT cytotoxicity assay on hPBMC. The following applies: 24-h treatment, MTT.
The subject of experiment [3] is HepG2 cells. As to the kind of experiment: Cellular As uptake, HepG2 cells. Type of experiment: cell-based, human. The conditions noted are these: 24-h treatment, 1.5 μM As.
Another experiment has as its system KARPAS 45 cells. As to the kind of experiment: MTT cytotoxicity assay on KARPAS 45 cells.
The test system of another experiment is HL-60 cells. Briefly: MTT cytotoxicity assay on HL-60 cells. The following applies: HL-60 cells, 24-h treatment, MTT.
Experiment [4] concerns HepG2 cells. Briefly: MTT cytotoxicity assay on HepG2 cells. The conditions noted are these: 24-h treatment.
Another experiment relates to Kasumi-1 cells. As to the kind of experiment: MTT cytotoxicity assay on Kasumi-1 cells. The conditions noted are these: 24-h treatment.
Setting [5] is: triplicate MTT assays (Table 15).

As to Arsenic(III) triiodide, the IC50 with K562 cells (MTT) amounted to 18.1 µM; in the experiment on K562 cells (setting [5]), 18.14 ± 0.75 PM.

Turning to `O=[As](O)(O)c1ccc(I)cc1`, in the experiment on K562 cells (K562, preliminary toxicity studies), the “toxicity of the two HPLC fractions / isomers compared” value is recorded as “elicited the same toxicity”.

With `O=[As]c1ccccc1` (stereo not drawn), the IC50 is 1.49 µM in experiment [1]; 9.3 µM and 9 µM in experiment [2]; 5.1 µM and 5 µM with KARPAS 45 cells (KARPAS 45 cells, 24-h treatment, MTT); 1.5 µM in the experiment on HL-60 cells; 0.63 µM with HepG2 cells [4]; 5.1 µM in the experiment on Kasumi-1 cells. The IC50 in the experiment on K562 cells (MTT) was found to be 3.4 µM; in the experiment with K562 cells (setting [5]), 3.40 ± 0.42 PM. In the experiment with HepG2 cells [3], the “cellular As concentration in HepG2 cells, times greater than in HL-60 cells” value worked out at 7.6 times. In the experiment on HepG2 cells [3], the “cellular As concentration in HepG2 cells, times greater than in Kasumi-1 cells” value worked out at 3.9 times. Also, the “cellular As concentration in HepG2 cells, times higher than in K562 cells” value in the experiment with HepG2 cells [3] is 3.8 times. The “cellular As concentration in HepG2 cells, times higher than in KARPAS 45 cells” value with HepG2 cells [3] is given as 4.8 times. Moreover, the “cellular As concentration in HepG2 cells, times higher than in hPBMC” value in the experiment with HepG2 cells [3] stood at 2.2 times. Further, the “relative toxicity / IC50 versus another compound, in words (comparator in the value)” value in the experiment with KARPAS 45 cells (KARPAS 45, 24-h treatment) was “approximately three times more toxic than ATO”; in the experiment on K562 cells (K562, 24-h treatment) it was “three times more toxic than ATO”.
